The entries are a selection whose mix differs from that of the whole data set. The source made the active and inactive calls.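 Rule for the calls: active = activation above the mean of all tested compounds plus 3 SD, computed per campaign excluding outliers beyond control limits (cut at about 13% in these data); inactive = the rest.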
molecular target: Kallikrein-7 (Homo sapiens) (UniProt P49862); test: proKLK7 zymogen activators, primary screen, biochemical, fluorescence intensity (AID 652039); conditions: purified proKLK7, EDANS-DABCYL substrate fluorescence; at 7 µM; active compounds read high; 100% is mature enzyme control, 0% vehicle

Amino acid sequences for entries named in this document (tags omitted).
UniProt P49862, whole entry: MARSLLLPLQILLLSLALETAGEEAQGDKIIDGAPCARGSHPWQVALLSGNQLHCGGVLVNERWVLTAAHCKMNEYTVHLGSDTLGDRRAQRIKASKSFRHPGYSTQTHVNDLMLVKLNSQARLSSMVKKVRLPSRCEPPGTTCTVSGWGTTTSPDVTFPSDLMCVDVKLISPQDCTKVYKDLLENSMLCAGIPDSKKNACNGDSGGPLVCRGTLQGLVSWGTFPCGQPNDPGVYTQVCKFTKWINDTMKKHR

Row | SMILES | activation
1 | O=[N+]([O-])c1cc([N+](=O)[O-])c(-c2cnn(-c3ccccc3)c2)c([N+](=O)[O-])c1 | inactive: 0.4%
2 | Cc1nc2ccc3ccccc3c2s1.O=[N+]([O-])c1cc([N+](=O)[O-])c(O)c([N+](=O)[O-])c1 | inactive: -0.03%
3 | O=[N+]([O-])c1cc([N+](=O)[O-])c(-n2nnc3ccccc32)c([N+](=O)[O-])c1 | inactive: 0.48%
4 | CN(Cc1cccnc1)C(=O)COc1ccc(Cl)c(Cl)c1.O=[N+]([O-])c1cc([N+](=O)[O-])c(O)c([N+](=O)[O-])c1 | inactive: -0.38%
5 | COc1ccccc1OP(C)(=O)Nc1c(C)cccc1C (stereo not drawn) | inactive: 0.76%
6 | CN1CCCCC1COC(=O)C1(O)c2ccccc2CCc2ccccc21 (stereo not drawn) | inactive: -0.11%
7 | COc1ccc(-c2ccccn2)cc1.O=[N+]([O-])c1cc([N+](=O)[O-])c(O)c([N+](=O)[O-])c1 | inactive: -0.38%
8 | CCCOc1ccc(NP(C)(=O)Oc2ccc(Cl)cc2)cc1 (stereo not drawn) | inactive: 0.4%
9 | CP(=O)(Nc1ccc(SC(F)(F)F)cc1)Oc1ccccc1 (stereo not drawn) | inactive: -0.35%
10 | O=[N+]([O-])c1cc([N+](=O)[O-])c(Nc2nnnn2CCO)c([N+](=O)[O-])c1 | inactive: -0.72%
11 | CCOC(=O)C(CC)C1=NC(C)(C)Cc2ccccc21.O=[N+]([O-])c1cc([N+](=O)[O-])c(O)c([N+](=O)[O-])c1 (stereo not drawn) | inactive: 0.46%
12 | CC1=NCCc2c1[nH]c1ccccc21.O=[N+]([O-])c1cc([N+](=O)[O-])c(O)c([N+](=O)[O-])c1 | inactive: 12%
13 | O=C(O)c1cccc(Nc2c([N+](=O)[O-])cc([N+](=O)[O-])cc2[N+](=O)[O-])c1 | inactive: 0.2%
14 | Cc1ccc(C)c(NP(C)(=O)Oc2ccccc2)c1 (stereo not drawn) | inactive: -0.13%
15 | Cc1cc(C)cc(OP(C)(=O)Nc2ccccn2)c1 (stereo not drawn) | inactive: -0.77%
16 | CP(=O)(Nc1cccc(Br)c1)Oc1ccccc1 (stereo not drawn) | inactive: 0.36%
17 | COc1ccccc1OP(C)(=O)Nc1cccc(Br)c1 (stereo not drawn) | inactive: -0.59%
18 | CCOC(=O)c1ccc(NP(C)(=O)Oc2cc(C)cc(C)c2)cc1 (stereo not drawn) | inactive: 0.11%
19 | Cc1cc(C)cc(OP(C)(=O)Nc2ccc(C)cc2C)c1 (stereo not drawn) | inactive: -0.22%
20 | COc1ccccc1-c1ccccn1.O=[N+]([O-])c1cc([N+](=O)[O-])c(O)c([N+](=O)[O-])c1 | inactive: 0.19%

Row | SMILES | activation
21 | CCN(CC)CCCOC(=O)C(O)(c1ccccc1)c1ccccc1 | inactive: -0.3%
22 | COc1ccccc1OP(C)(=O)Nc1ccc(C)cc1 (stereo not drawn) | inactive: -0.81%
23 | Cc1ccc(NP(C)(=O)Oc2ccccc2)c(C)c1 (stereo not drawn) | inactive: -0.22%
24 | CCOC(=O)c1ccc(NP(C)(=O)Oc2ccccc2)cc1 (stereo not drawn) | inactive: -0.42%
25 | Cc1cc(C)cc(OP(C)(N)=O)c1 (stereo not drawn) | inactive: 0.18%
26 | COc1ccccc1OP(C)(=O)Nc1cc(Cl)ccc1C (stereo not drawn) | inactive: 0.21%
27 | COc1ccc(OP(C)(=O)Nc2cccc(F)c2)cc1 (stereo not drawn) | inactive: 0.33%
28 | O=[N+]([O-])c1cc([N+](=O)[O-])c(Nc2cccnc2)c([N+](=O)[O-])c1 | inactive: -0.05%
29 | O=[N+]([O-])c1ccc2c(c1)C=Nc1ccccc1O2 | inactive: 0.29%
30 | CC(C)(C)c1ccc(OP(C)(=O)Nc2ccc(SC(F)(F)F)cc2)cc1 (stereo not drawn) | inactive: 0.24%
31 | Cc1cccc(C)c1OP(C)(N)=O (stereo not drawn) | inactive: -0.22%
32 | CP(=S)(Nn1cnnc1)Oc1ccccc1 (stereo not drawn) | inactive: -0.01%
33 | CP(=O)(Nc1ccccc1Br)Oc1ccccc1 (stereo not drawn) | inactive: 0.33%
34 | COc1ccccc1OP(C)(=O)Nc1ccccc1 (stereo not drawn) | inactive: 0.01%
35 | CCOC(=O)c1ccc(NP(C)(=O)Oc2ccc(OC)cc2)cc1 (stereo not drawn) | inactive: 0.11%
36 | O=[N+]([O-])c1cc([N+](=O)[O-])c(O)c([N+](=O)[O-])c1.c1ccc(Oc2ccncc2)cc1 | inactive: -0.27%
37 | CCOP(C)(=S)SCC(=O)NC(C)C(=O)O (stereo not drawn) | inactive: 0.61%
38 | CP(=O)(Nc1ccccn1)Oc1ccc(Cl)cc1 (stereo not drawn) | inactive: -0.23%
39 | Cc1cccc(C)c1OP(C)(=O)Nc1ccc(SC(F)(F)F)cc1 (stereo not drawn) | inactive: -0.05%
40 | CP(=O)(Nc1ccc(SC(F)(F)F)cc1)Oc1ccc(Cl)cc1 (stereo not drawn) | inactive: 0.69%

Row | SMILES | activation
41 | CP(=O)(Oc1ccccc1)OC(c1ccccc1)C(F)(F)F (stereo not drawn) | inactive: 0.38%
42 | CP(=O)(NC(=O)Nc1ccccc1)Oc1ccccc1 (stereo not drawn) | inactive: 0.03%
43 | CCc1ccc(OP(C)(=O)N2CCN(c3ccc([N+](=O)[O-])cc3)CC2)cc1 (stereo not drawn) | inactive: 0.91%
44 | Cc1cc(C)cc(OP(C)(=O)Nc2ccc(SC(F)(F)F)cc2)c1 (stereo not drawn) | inactive: 0.37%
45 | COc1ccccc1OP(C)(=O)Nc1ccccc1Br (stereo not drawn) | inactive: -0.29%
46 | CC(C)(C)c1ccc(OP(C)(=O)O)cc1 | inactive: -0.35%
47 | CP(=O)(Nc1ccc(Cl)cc1)Oc1ccc(F)cc1 (stereo not drawn) | inactive: -0.54%
48 | CN(C)C(=O)c1c([N+](=O)[O-])cc([N+](=O)[O-])cc1[N+](=O)[O-] | inactive: 0.02%
49 | CCN(CC)CC(O)COC(=O)C(O)(c1ccccc1)C1CCCCC1 (stereo not drawn) | inactive: 0.23%
50 | COc1ccc(OP(C)(=O)Nc2ccc(Br)cc2)cc1 (stereo not drawn) | inactive: -0.11%
51 | COc1ccccc1OP(C)(=O)Nc1c(C)n(C)n(-c2ccccc2)c1=O (stereo not drawn) | inactive: -0.14%
52 | O=C(OCCCN1CCCC1)C(O)(c1ccccc1)C1CCCCC1 (stereo not drawn) | inactive: -0.23%
53 | CP(=O)(Oc1ccccc1)N1CCOC1=O (stereo not drawn) | inactive: 0.24%
54 | CCc1ccc(OP(C)(=O)Nc2cccnc2)cc1 (stereo not drawn) | inactive: -0.54%
55 | Nc1ccc2c(ccc3cccnc32)n1.O=[N+]([O-])c1cc([N+](=O)[O-])c(O)c([N+](=O)[O-])c1 | active: 13.6%
56 | CCOC(=O)c1ccc(NP(C)(=O)Oc2ccc(Cl)cc2)cc1 (stereo not drawn) | inactive: 0.07%
57 | CP(=O)(OC12CC3CC(CC(C3)C1)C2)OC12CC3CC(CC(C3)C1)C2 | inactive: -0.44%
58 | CCCCCCCCCCCCCCCC1C[N+](C)(C)CCOP(C)(=O)O1 (stereo not drawn) | inactive: -0.05%

From PubChem BioAssay AID652039 (The Scripps Research Institute Molecular Screening Center, 2013)
